Where “and” joins values, the source holds several entries; their conditions need not be identical. Equal values may be shown once.
Assays:
[1] = target: bovine submaxillary mucin (BSM), TAG-72-positive (bovine); test: competition RIA, 125I-labeled nCC49 as competitor, BSM as target antigen
[2] = target: bovine submaxillary mucin (BSM), TAG-72-positive (bovine); test: radiolabeled antibody bound to BSM beads
[3] = target: tumor-associated glycoprotein-72 (TAG-72) (human); test: competition ELISA on TAG-72 plate, unlabeled CC49 mixed 1:1 with biotin CC49 as competitor; residual biotin CC49 signal (LB negative control 0.359)
[4] = target: bovine submaxillary mucin (BSM), TAG-72-positive (bovine); test: relative affinity constant, competition RIA on BSM, Scatchard analysis
[5] = target: tumor-associated glycoprotein-72 (TAG-72) (human); test: competition ELISA on TAG-72 plate, sample mixed 1:1 with biotin CC49 as competitor; residual biotin CC49 signal (LB negative control 0.359)

Substance | amount required for 50% competition [1] [mg] | percent bound [2] | OD 405 nm - OD 450 nm Value at 50 minutes [3] [OD] | Ka [4] [M⁻¹] | OD 405 nm - OD 450 nm Value at 50 minutes [5] [OD]
CC49 murine monoclonal antibody (native CC49) | 1.5 | > 85% | 0.076 | 1.8e+08 | –
CC49 Fab | – | – | – | – | 0.078
cCC49 chimeric CC49 monoclonal antibody | 2 | > 85% and 90% | – | 1.2e+08 | –

Reference: patent US6495137
